{"source": "ChEMBL document CHEMBL3046955", "about": "“Antiviral effects of three novel derivatives of adefovir on the replication of hepatitis B virus” (Med Chem Res, 2012)", "key": {"Hepatitis B virus [1]": {"tested_on": "Hepatitis B virus", "assay": "Antiviral activity against Hepatitis B virus infected human HepG2(2.2.15) cells assessed as inhibition of viral DNA replication after 9 days by RT-PCR analysis", "format": "functional, organism-based"}, "Hepatitis B virus [2]": {"tested_on": "Hepatitis B virus", "assay": "Antiviral activity against Hepatitis B virus infected human HepG2(2.2.15) cells assessed as viral DNA level after 9 days by southern blot analysis", "format": "functional, organism-based"}}}
{"compound": "CC(Cn1cnc2c(Sc3ccc4c(c3)CCO4)nc(N)nc21)OCP(=O)(OCC(F)(F)F)OCC(F)(F)F", "note": "(stereo not drawn)", "values": [{"measurement": "inhibition", "setting": "Hepatitis B virus [1]", "result": "Dose-dependent effect"}, {"measurement": "Activity", "setting": "Hepatitis B virus [2]", "result": "Dose-dependent effect"}]}
{"compound": "CC(C)(C)C(=O)OCOP(=O)(COCCn1cnc2c(N)ncnc21)OCOC(=O)C(C)(C)C", "note": "[ADEFOVIR DIPIVOXIL]", "values": [{"measurement": "inhibition", "setting": "Hepatitis B virus [1]", "result": "Dose-dependent effect"}, {"measurement": "Activity", "setting": "Hepatitis B virus [2]", "result": "Dose-dependent effect"}]}
{"compound": "COc1ccc(Sc2nc(N)nc3c2ncn3CCOCP(=O)(OCC(F)(F)F)OCC(F)(F)F)cc1F", "values": [{"measurement": "inhibition", "setting": "Hepatitis B virus [1]", "result": "Dose-dependent effect"}, {"measurement": "Activity", "setting": "Hepatitis B virus [2]", "result": "Dose-dependent effect"}]}
{"compound": "CSc1ccc(Sc2nc(N)nc3c2ncn3CCOCP(=O)(OCC(F)(F)F)OCC(F)(F)F)cc1", "values": [{"measurement": "inhibition", "setting": "Hepatitis B virus [1]", "result": "Dose-dependent effect"}, {"measurement": "Activity", "setting": "Hepatitis B virus [2]", "result": "Dose-dependent effect"}]}
